# Assay: Cytotoxicity in mouse NMuMG cells assessed as cell growth at 20 uM after 72 hrs by colorimetry
# Type: cell-based
row,SMILES,Activity
1,COC(=O)[C@@H]1N2C(=O)C(Br)(Br)[C@H]2S[C@@]1(C)CSc1nnnn1-c1ccccc1,10%
2,COC(=O)[C@@H]1N2C(=O)[C@H](Cl)[C@H]2S[C@@]1(C)CCl,78%
3,COC(=O)[C@@H]1N2C(=O)C(Br)(Br)[C@H]2S[C@@]1(C)CSc1nc2ccccc2s1,49%
4,COC(=O)[C@@H]1N2C(=O)[C@H](Br)[C@H]2S[C@@]1(C)CCl,95%
5,C[C@@]1(CCl)S[C@H]2N(C(=O)C2(Br)Br)[C@H]1C(=O)OCc1ccccc1,41%
6,COC(=O)[C@@H]1N2C(=O)C(Br)(Br)[C@H]2S[C@@]1(C)CSc1nc2ccccc2o1,40%
7,COC(=O)[C@@H]1N2C(=O)C(Br)(Br)[C@H]2S[C@@]1(C)CSc1nnn[nH]1,82%
